Protein sequences, listed by entry. Tags and fused reporters are not part of them.
UniProt P20272, whole entry: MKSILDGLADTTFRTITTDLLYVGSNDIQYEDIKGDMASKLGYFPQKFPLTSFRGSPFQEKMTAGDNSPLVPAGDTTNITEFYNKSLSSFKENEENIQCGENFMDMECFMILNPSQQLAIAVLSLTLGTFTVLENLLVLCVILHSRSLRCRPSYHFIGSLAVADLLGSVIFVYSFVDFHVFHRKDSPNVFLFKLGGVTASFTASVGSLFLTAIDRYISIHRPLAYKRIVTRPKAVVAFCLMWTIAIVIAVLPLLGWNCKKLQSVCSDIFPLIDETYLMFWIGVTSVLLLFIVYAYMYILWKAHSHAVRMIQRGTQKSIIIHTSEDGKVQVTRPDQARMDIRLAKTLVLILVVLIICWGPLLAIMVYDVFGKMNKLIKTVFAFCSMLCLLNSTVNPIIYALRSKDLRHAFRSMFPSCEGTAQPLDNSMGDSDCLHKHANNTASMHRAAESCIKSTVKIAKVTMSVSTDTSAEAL

According to patent US20140163034A1, “INHIBITORS OF ANANDAMIDE TRANSPORT AND THEIR THERAPEUTIC USES” (IIT - Istituto Italiano di Tecnologia, priority 2011, published 2014):

Biological target: CB1 cannabinoid receptors (Rattus norvegicus, UniProt P20272)
Experiment: Cannabinoid receptor binding assay, [3H]-CP55940 to rat brain membranes

CCCCC/C=C\C/C=C\C/C=C\C/C=C\CCCCOP(=O)(F)OC (stereo not shown)
effect on [3H]-CP55940 binding to rat brain membranes: significantly inhibited
